The values that follow are results of earlier work, collected in patent US20190309053A1, “PROLONGATION OF SURVIVAL OF AN ALLOGRAFT BY INHIBITING COMPLEMENT ACTIVITY” (Alexion Pharmaceuticals, Inc., priority 2004, published 2019).

This data set relates to terminal complement activity. The note with it: cited from earlier work.
The mark [1] stands for this setting: PNH patients, 900 mg/patient once every 12-14 days.

Take “eculizumab: whole anti-C5 monoclonal antibody specific to human complement C5”: the “duration for which the administered dose blocks the effects of complement” value (900 mg dose) is recorded as “approximately two weeks”. For the same substance, under setting [1], the “symptoms of PNH” value is “greatly inhibited”; the terminal complement activity entry is “completely and consistently block”. In addition, the ill effects entry (intravenous administration to humans in a study of PNH) is given as “without ill effects”.
